Results taken from BindingDB's records for doi:10.1016/0014-2999(89)90363-4 (Novo Industri, 1989).

Protein sequences, listed by entry. Tags and fused reporters are not part of them.
UniProt P14842, whole entry: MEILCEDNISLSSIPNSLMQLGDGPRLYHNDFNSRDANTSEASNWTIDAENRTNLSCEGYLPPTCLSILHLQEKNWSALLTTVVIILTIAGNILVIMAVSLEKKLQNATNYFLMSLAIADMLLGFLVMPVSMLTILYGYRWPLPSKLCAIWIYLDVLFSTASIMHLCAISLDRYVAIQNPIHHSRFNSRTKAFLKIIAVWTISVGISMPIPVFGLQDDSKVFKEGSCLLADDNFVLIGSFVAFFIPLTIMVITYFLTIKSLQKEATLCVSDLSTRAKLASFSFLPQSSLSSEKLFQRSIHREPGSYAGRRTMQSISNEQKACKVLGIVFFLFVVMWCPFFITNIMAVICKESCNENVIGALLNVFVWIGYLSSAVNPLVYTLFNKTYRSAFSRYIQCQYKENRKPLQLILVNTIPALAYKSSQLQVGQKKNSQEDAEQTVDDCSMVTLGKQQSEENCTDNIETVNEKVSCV
UniProt P31652, whole entry: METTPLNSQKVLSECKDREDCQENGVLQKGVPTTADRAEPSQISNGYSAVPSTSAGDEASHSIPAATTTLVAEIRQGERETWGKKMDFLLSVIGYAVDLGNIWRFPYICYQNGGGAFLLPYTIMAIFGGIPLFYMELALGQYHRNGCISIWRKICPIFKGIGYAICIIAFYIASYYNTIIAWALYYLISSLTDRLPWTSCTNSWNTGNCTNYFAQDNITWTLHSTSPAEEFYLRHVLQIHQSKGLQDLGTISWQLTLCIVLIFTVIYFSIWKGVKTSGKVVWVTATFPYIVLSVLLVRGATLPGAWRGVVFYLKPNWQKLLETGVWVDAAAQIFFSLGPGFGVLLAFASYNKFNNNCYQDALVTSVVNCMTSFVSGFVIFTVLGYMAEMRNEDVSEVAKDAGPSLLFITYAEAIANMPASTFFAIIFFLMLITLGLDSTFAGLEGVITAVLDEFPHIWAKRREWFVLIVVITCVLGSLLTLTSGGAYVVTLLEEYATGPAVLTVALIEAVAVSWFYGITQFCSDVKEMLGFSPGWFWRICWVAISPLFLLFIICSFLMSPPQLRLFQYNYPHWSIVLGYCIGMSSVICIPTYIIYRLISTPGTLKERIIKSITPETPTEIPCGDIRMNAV

How the values were obtained:
[1] = biological target: 5-hydroxytryptamine receptor 2A (Rattus norvegicus, UniProt P14842)
[2] = biological target: Sodium-dependent serotonin transporter (Rattus norvegicus, UniProt P31652)

Q: For CN(C)CCCN1c2ccccc2CCc2ccccc21, which Ki [1] is on record?
A: 217 nM

Q: For CN1Cc2c(N)cccc2[C@H](c2ccccc2)C1 [(+/-)-2-Methyl-4-phenyl-1,2,3,4-tetrahydro-isoquinolin-8-ylamine], which Ki [2] is on record?
A: 1820 nM

Q: Which Ki [2] does the source give for COC(=O)[C@H]1[C@@H](OC(=O)c2ccccc2)C[C@@H]2CC[C@H]1N2C [Cocaine (-)] here?
A: 389 nM

Q: With Fc1ccc(C(OCCN2CCN(CCCc3ccccc3)CC2)c2ccc(F)cc2)cc1 [Vanoxerine] as the molecule, how does the Ki [2] read?
A: 170 nM
